Measurements published in paper PMC10972748.

Target: SPSB3–ELOBC heterotrimeric complex (SPSB3 amino acids 83–326 with elongin B and elongin C) (UniProt Q6PJ21)
Test: BLI
Details: natural protein

| Kd [µM] | Substance |
| --- | --- |
| 22.1 | His-Halo-tagged cGAS single point mutant of Glu509 (from UniProt Q8N884 1-522) |
| 3.3 | His-Halo-tagged cGAS single point mutant of Tyr510 (from UniProt Q8N884 1-522) |
